Results on one compound are retold here after ChEMBL document CHEMBL1147722, “Discovery of proline sulfonamides as potent and selective hepatitis C virus NS5b polymerase inhibitors. Evidence for a new NS5b polymerase binding site” (J Med Chem, 2006).

The structures appear in SMILES notation.

The target of this experiment is RNA-directed RNA polymerase (Hepacivirus hominis, UniProt O39930). Briefly: Inhibition of HCV NS5B RNA dependent RNA polymerase.

`Cc1cc(S(=O)(=O)N2CCC[C@H]2C(=O)O)c(N)cc1Cl` gave an IC50 of 3.1 µM.
